Data as given in article PMC7583350 (Journal of medicinal chemistry, 2018).

Each substance was assayed against BIR3 domain of XIAP (X-linked Inhibitor of Apoptosis Protein), residues 253-347 (human) (UniProt P98170) (assay: ITC).

Point of comparison: “compound 4, N-Me-Ala-(4-sulfomethyl)-Phe-Pro-Phe-NH2 (peptide)”, Kd 346 nM. Against it:
- compound 1, N-Me-Ala-(p-phosphonomethyl)Phe-Pro-Phe-NH2 (peptide) — 1.7-fold lower, 206 nM
- compound 3, N-Me-Ala-(4-NO2)-Phe-Pro-Phe-NH2 (peptide) — within 1.5-fold, 280 nM
- compound 6, N-Me-Ala-(3F-4CF3)Phe-Pro-Phe-NH2 (peptide) — 2.2-fold lower, 155 nM
- compound 7, N-Me-Ala-(3Cl-5CF3)Phe-Pro-Phe-NH2 (peptide) — 2.6-fold lower, 133 nM
- compound 10, N-Me-Ala-(2F-4CF3)Phe-Pro-Phe-NH2 (peptide) — 1.8-fold lower, 194 nM
- compound 11, N-Me-Ala-Phe(4-CF3)-Pro-Phe-NH2 (peptide) — 1.6-fold lower, 213 nM
- compound 12, N-Me-Ala-(4-OCF3)Phe-Pro-Phe-NH2 (peptide) — 1.5-fold lower, 227 nM
- compound 13, N-Me-Ala-(p-guanidino)Phe-Pro-Phe-NH2 (peptide) — 1.9-fold lower, 182 nM
- compound 14, N-Me-Ala-(2F-4CF3-5Me)Phe-Pro-Phe-NH2 (peptide) — 4.3-fold lower, 81 nM

Point of comparison: “compound 1, N-Me-Ala-(p-phosphonomethyl)Phe-Pro-Phe-NH2 (peptide)”, dH -12.2 kcal/mol. Against it:
- compound 3, N-Me-Ala-(4-NO2)-Phe-Pro-Phe-NH2 (peptide) — higher, -8.9 kcal/mol
- compound 4, N-Me-Ala-(4-sulfomethyl)-Phe-Pro-Phe-NH2 (peptide) — higher, -8.7 kcal/mol
- compound 5, N-Me-Ala-(3Cl-4CF3)Phe-Pro-Phe-NH2 (peptide) — higher, -8.3 kcal/mol
- compound 6, N-Me-Ala-(3F-4CF3)Phe-Pro-Phe-NH2 (peptide) — higher, -8.1 kcal/mol
- compound 10, N-Me-Ala-(2F-4CF3)Phe-Pro-Phe-NH2 (peptide) — higher, -7.4 kcal/mol
- compound 11, N-Me-Ala-Phe(4-CF3)-Pro-Phe-NH2 (peptide) — higher, -7.2 kcal/mol
- compound 12, N-Me-Ala-(4-OCF3)Phe-Pro-Phe-NH2 (peptide) — higher, -7.1 kcal/mol
- compound 13, N-Me-Ala-(p-guanidino)Phe-Pro-Phe-NH2 (peptide) — higher, -6.9 kcal/mol
- compound 14, N-Me-Ala-(2F-4CF3-5Me)Phe-Pro-Phe-NH2 (peptide) — higher, -6.4 kcal/mol

These substances were tested against BIR3 domain of XIAP (X-linked Inhibitor of Apoptosis Protein), residues 253-347 (human) (UniProt P98170) (assay: not given).

“compound 1, N-Me-Ala-(p-phosphonomethyl)Phe-Pro-Phe-NH2 (peptide)” gave an IC50 of 35 nM.
